Experimental data as given in patent publication US20240307373A1, “METHODS OF USE AND COMPOSITIONS OF BISBENZYLISOQUINOLINES FOR THE TREATMENT OF MALIGNANCIES” (priority 2023, published 2024).

The chains behind the UniProt entries cited, without tags or fusion partners.
UniProt P08183, whole entry: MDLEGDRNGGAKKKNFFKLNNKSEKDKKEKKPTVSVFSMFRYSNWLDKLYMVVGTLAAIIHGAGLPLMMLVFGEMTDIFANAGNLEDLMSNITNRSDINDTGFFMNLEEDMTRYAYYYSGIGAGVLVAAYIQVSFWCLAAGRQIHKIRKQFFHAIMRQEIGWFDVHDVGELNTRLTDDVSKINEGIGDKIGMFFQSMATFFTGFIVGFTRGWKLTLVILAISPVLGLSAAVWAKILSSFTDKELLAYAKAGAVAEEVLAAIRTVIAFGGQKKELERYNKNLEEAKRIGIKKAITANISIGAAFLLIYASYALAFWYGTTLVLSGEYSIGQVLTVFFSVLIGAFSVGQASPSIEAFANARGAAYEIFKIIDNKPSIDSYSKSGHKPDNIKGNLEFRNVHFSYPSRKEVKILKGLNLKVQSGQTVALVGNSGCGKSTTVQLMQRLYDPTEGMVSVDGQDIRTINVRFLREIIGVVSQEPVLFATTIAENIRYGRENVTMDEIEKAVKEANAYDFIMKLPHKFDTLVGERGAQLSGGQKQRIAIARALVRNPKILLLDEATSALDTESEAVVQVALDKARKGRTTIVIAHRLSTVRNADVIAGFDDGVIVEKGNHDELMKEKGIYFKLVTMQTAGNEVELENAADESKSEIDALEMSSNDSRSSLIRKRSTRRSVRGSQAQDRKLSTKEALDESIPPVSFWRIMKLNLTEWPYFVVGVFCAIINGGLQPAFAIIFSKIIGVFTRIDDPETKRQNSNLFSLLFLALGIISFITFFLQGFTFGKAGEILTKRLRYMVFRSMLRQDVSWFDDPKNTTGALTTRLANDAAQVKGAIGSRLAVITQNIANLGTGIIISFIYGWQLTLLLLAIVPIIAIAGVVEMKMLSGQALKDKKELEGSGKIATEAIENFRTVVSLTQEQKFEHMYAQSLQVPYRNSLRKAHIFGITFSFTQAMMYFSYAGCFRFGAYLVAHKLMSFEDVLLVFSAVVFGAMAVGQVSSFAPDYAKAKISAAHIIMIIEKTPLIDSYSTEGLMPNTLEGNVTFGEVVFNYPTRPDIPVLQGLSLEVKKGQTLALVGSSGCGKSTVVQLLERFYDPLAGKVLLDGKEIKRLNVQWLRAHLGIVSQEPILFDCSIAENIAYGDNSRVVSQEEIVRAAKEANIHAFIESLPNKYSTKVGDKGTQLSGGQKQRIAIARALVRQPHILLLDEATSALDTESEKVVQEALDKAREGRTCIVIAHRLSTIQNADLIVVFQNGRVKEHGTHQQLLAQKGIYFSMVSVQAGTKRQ
UniProt Q13555, whole entry: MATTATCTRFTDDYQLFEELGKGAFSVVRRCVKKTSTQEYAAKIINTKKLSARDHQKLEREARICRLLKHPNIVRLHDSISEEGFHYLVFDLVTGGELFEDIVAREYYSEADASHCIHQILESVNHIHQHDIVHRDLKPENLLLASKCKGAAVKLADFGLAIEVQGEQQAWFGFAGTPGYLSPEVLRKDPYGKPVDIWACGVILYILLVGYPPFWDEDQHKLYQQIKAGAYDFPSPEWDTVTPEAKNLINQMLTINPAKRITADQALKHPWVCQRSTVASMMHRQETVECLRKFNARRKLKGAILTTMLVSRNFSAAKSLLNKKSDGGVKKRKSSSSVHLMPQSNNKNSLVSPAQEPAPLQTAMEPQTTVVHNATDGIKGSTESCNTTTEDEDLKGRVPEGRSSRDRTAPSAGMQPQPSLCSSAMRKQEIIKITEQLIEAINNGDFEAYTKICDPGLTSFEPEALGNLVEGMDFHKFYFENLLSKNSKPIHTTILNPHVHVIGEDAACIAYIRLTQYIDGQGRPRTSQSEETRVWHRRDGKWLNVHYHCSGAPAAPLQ

What was measured:
P-glycoprotein (P-gp) = P-glycoprotein (P-gp) (Homo sapiens, UniProt P08183); conditions: without altering the protein expression level of P-gp (Susa 2010); cited from earlier work
CAMKII gamma = CAMKII gamma (Homo sapiens, UniProt Q13555); experiment: CAMKII gamma kinase activity (ADP Glo); type: biochemical; conditions: 30-250 uM, 10 or 50 uM ATP

## COc1ccc2cc1Oc1ccc(cc1)C[C@H]1c3cc(c(OC)cc3CCN1C)Oc1c(OC)c(OC)cc3c1[C@H](C2)N(C)CC3
P-glycoprotein (P-gp)
  function of Pgp: directly inhibits the function of Pgp in a dose-dependent manner
CAMKII gamma
  CAMKII gamma kinase activity inhibition (in words): inhibited CAMKII gamma kinase activity in a dose dependent manner
